# Laboratory results published in patent US20050241012A1, “Multigene profiling in the kidney to tailor drug therapy” (priority 2003, published 2005).
# How the values were obtained:
# choroid plexus = test: Accumulation in isolated choroid plexus, confocal fluorescence microscopy, wild-type and Oat3−/− mice; details: 1 μM FL or 2 μM FL-MTX, 45 min
# Text: The CP is composed of capillary projections surrounded by a single layer of cells that protrude into the cerebrospinal fluid-filled ventricles of the brain. The orientation is such that the CSF bathes the apical membrane of the cell and the basal membrane is toward the underlying fenestrated capillary. (A and C) Transmitted light images of wild-type and Oat3^−/− CP, respectively, showing the tissue structure. (B and D) Corresponding fluorescence micrographs of the CP shown in (A) and (C). Confocal images were acquired 45 min after exposure to 1 μM FL in the aCSF medium. […] The positions of representative cells and capillaries (CUD) are indicated by arrows. A 20-μm bar is shown.
# Fluorescence levels in cells and vessels of CP from 4 wild-type and 4 Out3^−/− mice were measured (n=5-10 adjacent cellular and capillary areas/CP). […] Data are given as mean ±S.E. for each animal.
# Choroid plexus isolation. Adult male and female wild-type and Oat3^−/− mice were euthanized with CO2.
# Confocal Fluorescence Microscopy. CP were imaged as using an inverted Zeiss model 510 laser scanning confocal microscope fitted with a 40μ water immersion objective (numeric aperture, 1.2). Samples were illuminated with the 488-nm line of an argon laser; a 510-nm dichroic filter was in the light path, and a long pass emission filter (515 nm) was positioned in front of the detector. […] For each CP, 5-10 adjacent cellular and capillary areas were selected. After background subtraction, the average pixel intensity for each area was calculated and the values reported graphically for each CP are the means ±S.E. for all selected areas (n˜5-10). Values reported in the text are mean ±S.E. of the individual mean values for each CP as determined above (n˜4-6 animals/group).
# hepatic slices = test: Hepatic tissue slice uptake assay, wild-type and Oat3−/− mice; details: 1 h; male wild-type littermates
# Procedure: Data were calculated as tissue to medium T/M ratios and are presented as mean values ±S. E. (3 slices, treatment).
# Renal and hepatic tissue slice preparation and uptake assays were performed according to standard protocols. Four- to 6-month-old mice were euthanized by CO2 inhalation, and the liver and kidneys were immediately placed into freshly oxygenated ice-cold saline. Tissue slices (˜0.5 mm; ˜5-10 mg, wet weight) were cut with a Stadie-Riggs microtome and maintained in ice-cold modified Cross and Taggart saline (in mM: 95 NaCl, 80 mannitol, 5 KCl, 0.74 CaCl2, and 9.5 Na2PO4, pH 7.4). […] Conditions for the PAH experiments were optimized for Oat1 by the addition of 10 μM glutarate to the uptake buffer. After incubation the slices were removed from the uptake medium, blotted, weighed, dissolved in 1 ml of 1M NaOH, neutralized with 1 ml of 1M HCl, and assayed by liquid scintillation spectroscopy. Duplicate medium samples (50 μl) were also assayed, and data are presented as tissue to medium (T/M) ratios (i.e. dpm/mg of tissue divided by dpm/μl of medium).
# mouse Oat3 = biological target: T1, mouse Oat3 (Mus musculus, UniProt O88909); details: 1 h uptake; 10 μM [3H]PAH, 90 nM [3H]estrone sulfate, 500 nM [3H]taurocholate
# T1 sequence (O88909 1-537): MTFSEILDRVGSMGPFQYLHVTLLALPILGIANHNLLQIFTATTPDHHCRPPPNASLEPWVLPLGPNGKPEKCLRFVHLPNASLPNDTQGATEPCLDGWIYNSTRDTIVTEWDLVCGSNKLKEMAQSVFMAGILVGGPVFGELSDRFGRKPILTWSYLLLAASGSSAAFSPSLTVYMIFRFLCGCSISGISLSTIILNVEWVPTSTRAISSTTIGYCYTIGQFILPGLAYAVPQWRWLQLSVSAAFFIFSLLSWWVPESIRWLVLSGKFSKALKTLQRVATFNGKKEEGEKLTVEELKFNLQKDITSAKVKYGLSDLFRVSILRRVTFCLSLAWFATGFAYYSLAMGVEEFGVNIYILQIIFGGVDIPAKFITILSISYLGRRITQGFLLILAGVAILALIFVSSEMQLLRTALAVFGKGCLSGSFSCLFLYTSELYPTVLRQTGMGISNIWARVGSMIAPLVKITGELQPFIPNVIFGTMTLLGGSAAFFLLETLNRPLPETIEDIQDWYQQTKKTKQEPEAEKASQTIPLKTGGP
# Procedure: FIG. 13 oocytes three days after injection with either mouse Oat1 or mouse Oat3 cRNA. Oocytes were randomly sorted into test groups and 1 h uptake determined.
# Transport Assays-Xenopus oocyte isolation procedures and uptake assay. Ovaries were removed from tricaine methanesulfonate anesthetized adult female Xenopus laevis and follicle-free stage V and stage VI oocytes were isolated by treatment with collagenase A. After an overnight recovery period in Barth's buffer at 18° C., oocytes were microinjected with 20 ng of capped cRNA synthesized from linearized cDNA (mMessage mMachine in vitro transcription kit, Ambion, Inc., Austin, Tex.). […] Oocyte radioactivity was measured in disintegrations/min (dpm) in a Packard 1600TR liquid scintillation counter with external quench correction.
capillary accumulation in CP from Oat3−/− mice compared with wild-type (choroid plexus),capillary accumulation in CP from Oat3−/− mice compared with wild-type (choroid plexus; listed as FL-MIX),capillary accumulation in CP from Oat3−/− mice compared with wild-type (choroid plexus; listed as fluorescein-methotrexate),Substance,difference in hepatic slice uptake between wild-type and Oat3−/− mice (hepatic slices),mediated uptake in Oat3-expressing oocytes (mouse Oat3)
unchanged,No difference,unchanged,fluorescein-methotrexate [FL-MTX],–,–
–,–,–,estrone sulfate,lack of any significant difference,substantial
